According to PubChem BioAssay AID800 (PCMD, 2007):
Only a part is listed here, and it is no random draw. Some salts or complexes appear as unconnected parts, following the source record. Activity calls are given as the source filed them. Rule as the data show it: active = inhibition above about 40%; inactive = the rest.

The chains behind the UniProt entries cited, without tags or fusion partners. Residues count along the entry.
UniProt P00748, 20-372 limits assumed: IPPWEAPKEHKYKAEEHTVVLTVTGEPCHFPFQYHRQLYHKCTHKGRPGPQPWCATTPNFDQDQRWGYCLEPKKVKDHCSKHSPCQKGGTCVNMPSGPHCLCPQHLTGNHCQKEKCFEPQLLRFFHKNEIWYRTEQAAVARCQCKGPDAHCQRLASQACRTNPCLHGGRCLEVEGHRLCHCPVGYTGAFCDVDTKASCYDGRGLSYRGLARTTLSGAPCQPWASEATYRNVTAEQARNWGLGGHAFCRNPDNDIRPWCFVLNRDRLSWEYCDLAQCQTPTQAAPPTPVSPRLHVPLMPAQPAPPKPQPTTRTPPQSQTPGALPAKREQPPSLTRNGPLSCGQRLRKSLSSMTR
UniProt P00748, 373-615 limits assumed: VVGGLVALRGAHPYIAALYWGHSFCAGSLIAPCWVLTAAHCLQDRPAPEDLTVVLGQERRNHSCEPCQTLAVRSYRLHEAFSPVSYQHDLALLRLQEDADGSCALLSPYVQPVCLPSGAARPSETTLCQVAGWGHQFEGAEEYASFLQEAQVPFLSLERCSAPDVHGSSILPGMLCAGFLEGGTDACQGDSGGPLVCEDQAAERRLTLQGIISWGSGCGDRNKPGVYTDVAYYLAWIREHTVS

target: Coagulation factor XII (Homo sapiens) (UniProt P00748); assay: human FXIIa protease inhibitors, primary screen, biochemical, 1536-well (AID 800); settings: purified FXIIa, Boc-QGR-AMC fluorogenic substrate, 2 h; at 5 µM; stronger effect = higher value;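 also: 0% = enzyme with no compound and 100% = blank without enzyme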

Row | SMILES | inhibition
1 | CCN(CC)CC(O)COC(=O)C(O)(c1ccccc1)C1CCCCC1 (centres undefined) | inactive: 5.71%
2 | COc1ccc(OP(C)(=O)Nc2ccc(Br)cc2)cc1 (centres undefined) | inactive: 7.74%
3 | CP(=O)(Oc1ccccc1)N1CCOC1=O (centres undefined) | inactive: 22.1%
4 | CCc1ccc(OP(C)(=O)Nc2cccnc2)cc1 (centres undefined) | inactive: 0.46%
5 | O=C(OCCCN1CCCC1)C(O)(c1ccccc1)C1CCCCC1 (centres undefined) | inactive: 3.49%
6 | CP(=O)(Nc1ccc(Cl)cc1)Oc1ccc(F)cc1 (centres undefined) | inactive: 17.3%
7 | COc1ccccc1OP(C)(=O)Nc1ccccc1Br (centres undefined) | inactive: -5.89%
8 | CC(C)(C)c1ccc(OP(C)(=O)O)cc1 | inactive: 5.37%
9 | CN(C)C(=O)c1c([N+](=O)[O-])cc([N+](=O)[O-])cc1[N+](=O)[O-] | inactive: 8.72%
10 | CP(=O)(OC12CC3CC(CC(C3)C1)C2)OC12CC3CC(CC(C3)C1)C2 | inactive: 4.66%
11 | CCOC(=O)c1ccc(NP(C)(=O)Oc2ccc(Cl)cc2)cc1 (centres undefined) | inactive: 11.4%
12 | Cc1cc(C)cc(OP(C)(=O)Nc2cccc(C(F)(F)F)c2)c1 (centres undefined) | inactive: 6.83%
13 | COc1ccc(OP(C)(=O)Nc2ccccc2Br)cc1 (centres undefined) | inactive: 13.7%
14 | COc1ccccc1OP(C)(=O)Nc1ccc(C)c(C)c1 (centres undefined) | inactive: 10.7%
15 | Cc1nc2ccc3ccccc3c2o1.O=[N+]([O-])c1cc([N+](=O)[O-])c(O)c([N+](=O)[O-])c1 | inactive: -6.47%
16 | CP(=O)(Nc1ccc(Cl)cc1Cl)Oc1ccccc1 (centres undefined) | inactive: 6.89%
17 | CP(=O)(OCCOc1ccccc1)OCCOc1ccccc1 | inactive: 10.5%
18 | COc1ccccc1OP(C)(=O)Nc1ccc(Br)cc1 (centres undefined) | inactive: 1.04%
19 | CN(C)CCOC(=O)C(O)(c1ccccc1)C1CCCC1 (centres undefined) | inactive: 0.61%
20 | COc1ccc(OP(C)(=O)Nc2ccccn2)cc1 (centres undefined) | inactive: 23.4%

Row | SMILES | inhibition
21 | Cc1c(NP(C)(=O)Oc2ccc(C(C)C)cc2)c(=O)n(-c2ccccc2)n1C (centres undefined) | inactive: -5.21%
22 | O=[N+]([O-])c1cc([N+](=O)[O-])c(Nc2ccccn2)c([N+](=O)[O-])c1 | inactive: 5.57%
23 | CCc1ccc(OP(C)(=O)O)cc1 | inactive: 8.69%
24 | CP(=O)(Nc1ccccn1)Oc1ccccc1 (centres undefined) | inactive: 20.4%
25 | COc1ccccc1OP(C)(=O)Nc1ccc(C)cc1C (centres undefined) | inactive: -6.77%
26 | CC(C)c1ccc(OP(C)(=O)Nc2ccc(SC(F)(F)F)cc2)cc1 (centres undefined) | inactive: 8.47%
27 | CP(=O)(Nc1ccccc1F)Oc1ccccc1 (centres undefined) | inactive: -14%
28 | O=C(OCCN1CCN(CCOCc2ccccc2)CC1)C(O)(c1ccccc1)c1ccccc1 | inactive: 12.8%
29 | O=C(OC1CN2CCC1CC2)c1ccc([N+](=O)[O-])cc1 (centres undefined) | inactive: 6.77%
30 | COc1ccc2c(c1O)-c1c(O)c(OC)cc3c1[C@H](C2)[N+](C)(C)CC3.O=[N+]([O-])c1cc([N+](=O)[O-])c([O-])c([N+](=O)[O-])c1[O-] | inactive: 10.8%
31 | COc1ccc(OP(C)(=O)Nc2ccc(SC(F)(F)F)cc2)cc1 (centres undefined) | inactive: 0.52%
32 | CCOC(=O)c1ccc(NP(C)(=O)Oc2ccc(F)cc2)cc1 (centres undefined) | inactive: -5.8%
33 | CCN(CC)CCCOC(=O)C(O)(c1ccccc1)C1CCCCC1 (centres undefined) | inactive: 6.19%
34 | CCCCCOc1ccc(NP(C)(=O)Oc2ccc(Cl)cc2Cl)cc1 (centres undefined) | inactive: 5.9%
35 | CP(=O)(Nc1ccccc1)Oc1ccc(F)cc1 (centres undefined) | inactive: 13.8%
36 | COc1ccc(OP(C)(=O)Nc2cccc(Br)c2)cc1 (centres undefined) | inactive: 14.6%
37 | COc1ccc(NP(C)(=O)Oc2ccccc2OC)cc1 (centres undefined) | inactive: 6.97%
38 | CN(C)CCOC(=O)C(O)(c1ccccc1)C1CCCCC1 (centres undefined) | inactive: 14.9%
39 | Cc1cc(-c2cccc3ccccc23)c(C)cn1.O=[N+]([O-])c1cc([N+](=O)[O-])c(O)c([N+](=O)[O-])c1 | inactive: 3.96%
40 | O=[N+]([O-])c1cc([N+](=O)[O-])c(NCC2CCS(=O)(=O)C2)c([N+](=O)[O-])c1 (centres undefined) | inactive: 10.4%

Row | SMILES | inhibition
41 | O=[N+]([O-])c1ccc(OP2(=O)COCCO2)cc1 (centres undefined) | inactive: 7.19%
42 | CP(=O)(Nc1ccc(SC(F)(F)F)cc1)Oc1ccc(F)cc1 (centres undefined) | inactive: 7.79%
43 | CCOP(C)(=S)SCC(=O)NC(C)(CC)C(=O)O (centres undefined) | inactive: -9.03%
44 | CP(=O)(Nc1ccc2c(c1)OCCO2)Oc1ccccc1 (centres undefined) | inactive: 15.8%
45 | Cc1ccccc1NP(C)(=O)Nc1ccccc1C | inactive: 3.91%
46 | O=[N+]([O-])c1cc([N+](=O)[O-])c(-n2nnc3ccccc32)c([N+](=O)[O-])c1 | inactive: 11.9%
47 | Cc1nc2ccc3ccccc3c2s1.O=[N+]([O-])c1cc([N+](=O)[O-])c(O)c([N+](=O)[O-])c1 | inactive: 19.5%
48 | O=[N+]([O-])c1cc([N+](=O)[O-])c(Nc2nnnn2CCO)c([N+](=O)[O-])c1 | inactive: 3.76%
49 | CCOC(=O)C(CC)C1=NC(C)(C)Cc2ccccc21.O=[N+]([O-])c1cc([N+](=O)[O-])c(O)c([N+](=O)[O-])c1 (centres undefined) | inactive: 5.15%
50 | CN1CCCCC1COC(=O)C1(O)c2ccccc2CCc2ccccc21 (centres undefined) | inactive: 3.29%
51 | COc1ccccc1OP(C)(=O)Nc1c(C)cccc1C (centres undefined) | inactive: -14.2%
52 | CCCOc1ccc(NP(C)(=O)Oc2ccc(Cl)cc2)cc1 (centres undefined) | inactive: 1.1%
53 | CP(=O)(Nc1ccc(SC(F)(F)F)cc1)Oc1ccccc1 (centres undefined) | inactive: -0.02%
54 | O=C(O)c1cccc(Nc2c([N+](=O)[O-])cc([N+](=O)[O-])cc2[N+](=O)[O-])c1 | inactive: 2.94%
55 | CC1=NCCc2c1[nH]c1ccccc21.O=[N+]([O-])c1cc([N+](=O)[O-])c(O)c([N+](=O)[O-])c1 | inactive: 2.37%
56 | COc1ccccc1OP(C)(=O)Nc1cccc(Br)c1 (centres undefined) | inactive: 12.9%
57 | Cc1cc(C)cc(OP(C)(=O)Nc2ccc(C)cc2C)c1 (centres undefined) | inactive: 10.1%
58 | CCOC(=O)c1ccc(NP(C)(=O)Oc2cc(C)cc(C)c2)cc1 (centres undefined) | inactive: 2.65%
59 | Cc1cc(C)cc(OP(C)(=O)Nc2ccccn2)c1 (centres undefined) | inactive: 2.21%
